Data on one molecule can be found in US20040266784A1, “Calcium channel inhibitors comprising benzhydril spaced from piperazine” (priority 1998, published 2004).

Amino acid sequences for entries named in this document (tags omitted). A change or cut given only in a name is not applied to a line headed by its entry.
UniProt P22002, whole entry: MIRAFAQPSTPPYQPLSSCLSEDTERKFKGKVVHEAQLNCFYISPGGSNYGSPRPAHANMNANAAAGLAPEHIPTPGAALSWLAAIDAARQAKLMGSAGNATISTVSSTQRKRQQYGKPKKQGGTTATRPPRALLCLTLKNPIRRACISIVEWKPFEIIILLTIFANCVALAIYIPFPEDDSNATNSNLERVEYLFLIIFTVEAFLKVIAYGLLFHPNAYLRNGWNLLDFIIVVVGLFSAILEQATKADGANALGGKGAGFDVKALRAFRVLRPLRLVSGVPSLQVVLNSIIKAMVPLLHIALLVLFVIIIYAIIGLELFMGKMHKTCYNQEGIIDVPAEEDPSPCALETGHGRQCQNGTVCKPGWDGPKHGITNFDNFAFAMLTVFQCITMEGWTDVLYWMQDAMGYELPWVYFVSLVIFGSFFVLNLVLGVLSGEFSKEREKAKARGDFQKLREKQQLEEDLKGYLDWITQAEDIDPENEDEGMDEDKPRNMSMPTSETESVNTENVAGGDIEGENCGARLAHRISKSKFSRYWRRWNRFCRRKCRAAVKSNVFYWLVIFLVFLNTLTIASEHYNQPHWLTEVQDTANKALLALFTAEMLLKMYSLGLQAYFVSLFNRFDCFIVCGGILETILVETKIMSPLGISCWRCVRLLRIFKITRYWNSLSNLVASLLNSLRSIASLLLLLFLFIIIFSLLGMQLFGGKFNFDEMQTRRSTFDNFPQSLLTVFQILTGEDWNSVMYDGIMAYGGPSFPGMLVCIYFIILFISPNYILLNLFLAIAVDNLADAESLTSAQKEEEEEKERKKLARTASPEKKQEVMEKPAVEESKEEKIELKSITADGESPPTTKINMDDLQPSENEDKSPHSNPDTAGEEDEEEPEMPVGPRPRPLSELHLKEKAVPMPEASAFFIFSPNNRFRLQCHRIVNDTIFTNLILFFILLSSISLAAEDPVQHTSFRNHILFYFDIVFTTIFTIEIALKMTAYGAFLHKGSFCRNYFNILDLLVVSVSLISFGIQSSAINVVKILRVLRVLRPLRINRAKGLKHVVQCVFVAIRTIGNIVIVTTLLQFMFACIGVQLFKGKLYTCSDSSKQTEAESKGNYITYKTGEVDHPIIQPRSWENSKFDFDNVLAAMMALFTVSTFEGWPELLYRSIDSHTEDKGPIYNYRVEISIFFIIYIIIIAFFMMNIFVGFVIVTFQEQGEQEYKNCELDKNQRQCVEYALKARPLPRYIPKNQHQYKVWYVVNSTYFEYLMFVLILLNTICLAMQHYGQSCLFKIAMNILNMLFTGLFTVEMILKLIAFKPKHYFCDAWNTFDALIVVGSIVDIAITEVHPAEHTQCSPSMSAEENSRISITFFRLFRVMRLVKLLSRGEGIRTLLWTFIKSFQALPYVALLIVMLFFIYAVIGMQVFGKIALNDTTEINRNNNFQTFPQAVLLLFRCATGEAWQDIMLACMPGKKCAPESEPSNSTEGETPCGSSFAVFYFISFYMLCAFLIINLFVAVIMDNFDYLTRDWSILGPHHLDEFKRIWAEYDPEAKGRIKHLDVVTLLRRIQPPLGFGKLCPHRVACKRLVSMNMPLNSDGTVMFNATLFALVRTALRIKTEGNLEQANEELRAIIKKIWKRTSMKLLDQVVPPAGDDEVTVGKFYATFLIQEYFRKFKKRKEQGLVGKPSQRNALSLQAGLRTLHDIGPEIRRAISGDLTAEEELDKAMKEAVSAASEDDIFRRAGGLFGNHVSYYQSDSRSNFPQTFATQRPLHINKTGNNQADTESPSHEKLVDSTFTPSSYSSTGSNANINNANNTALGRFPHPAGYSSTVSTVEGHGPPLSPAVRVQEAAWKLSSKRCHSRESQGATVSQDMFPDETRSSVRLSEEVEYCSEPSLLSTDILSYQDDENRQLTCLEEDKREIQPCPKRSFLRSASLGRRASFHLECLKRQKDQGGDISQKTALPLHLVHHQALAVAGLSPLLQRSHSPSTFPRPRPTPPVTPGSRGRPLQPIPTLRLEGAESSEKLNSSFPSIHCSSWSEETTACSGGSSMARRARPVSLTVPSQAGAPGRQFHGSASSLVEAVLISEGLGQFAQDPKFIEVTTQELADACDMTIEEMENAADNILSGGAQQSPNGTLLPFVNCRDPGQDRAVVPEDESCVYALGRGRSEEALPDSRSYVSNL
UniProt Q02294, whole entry: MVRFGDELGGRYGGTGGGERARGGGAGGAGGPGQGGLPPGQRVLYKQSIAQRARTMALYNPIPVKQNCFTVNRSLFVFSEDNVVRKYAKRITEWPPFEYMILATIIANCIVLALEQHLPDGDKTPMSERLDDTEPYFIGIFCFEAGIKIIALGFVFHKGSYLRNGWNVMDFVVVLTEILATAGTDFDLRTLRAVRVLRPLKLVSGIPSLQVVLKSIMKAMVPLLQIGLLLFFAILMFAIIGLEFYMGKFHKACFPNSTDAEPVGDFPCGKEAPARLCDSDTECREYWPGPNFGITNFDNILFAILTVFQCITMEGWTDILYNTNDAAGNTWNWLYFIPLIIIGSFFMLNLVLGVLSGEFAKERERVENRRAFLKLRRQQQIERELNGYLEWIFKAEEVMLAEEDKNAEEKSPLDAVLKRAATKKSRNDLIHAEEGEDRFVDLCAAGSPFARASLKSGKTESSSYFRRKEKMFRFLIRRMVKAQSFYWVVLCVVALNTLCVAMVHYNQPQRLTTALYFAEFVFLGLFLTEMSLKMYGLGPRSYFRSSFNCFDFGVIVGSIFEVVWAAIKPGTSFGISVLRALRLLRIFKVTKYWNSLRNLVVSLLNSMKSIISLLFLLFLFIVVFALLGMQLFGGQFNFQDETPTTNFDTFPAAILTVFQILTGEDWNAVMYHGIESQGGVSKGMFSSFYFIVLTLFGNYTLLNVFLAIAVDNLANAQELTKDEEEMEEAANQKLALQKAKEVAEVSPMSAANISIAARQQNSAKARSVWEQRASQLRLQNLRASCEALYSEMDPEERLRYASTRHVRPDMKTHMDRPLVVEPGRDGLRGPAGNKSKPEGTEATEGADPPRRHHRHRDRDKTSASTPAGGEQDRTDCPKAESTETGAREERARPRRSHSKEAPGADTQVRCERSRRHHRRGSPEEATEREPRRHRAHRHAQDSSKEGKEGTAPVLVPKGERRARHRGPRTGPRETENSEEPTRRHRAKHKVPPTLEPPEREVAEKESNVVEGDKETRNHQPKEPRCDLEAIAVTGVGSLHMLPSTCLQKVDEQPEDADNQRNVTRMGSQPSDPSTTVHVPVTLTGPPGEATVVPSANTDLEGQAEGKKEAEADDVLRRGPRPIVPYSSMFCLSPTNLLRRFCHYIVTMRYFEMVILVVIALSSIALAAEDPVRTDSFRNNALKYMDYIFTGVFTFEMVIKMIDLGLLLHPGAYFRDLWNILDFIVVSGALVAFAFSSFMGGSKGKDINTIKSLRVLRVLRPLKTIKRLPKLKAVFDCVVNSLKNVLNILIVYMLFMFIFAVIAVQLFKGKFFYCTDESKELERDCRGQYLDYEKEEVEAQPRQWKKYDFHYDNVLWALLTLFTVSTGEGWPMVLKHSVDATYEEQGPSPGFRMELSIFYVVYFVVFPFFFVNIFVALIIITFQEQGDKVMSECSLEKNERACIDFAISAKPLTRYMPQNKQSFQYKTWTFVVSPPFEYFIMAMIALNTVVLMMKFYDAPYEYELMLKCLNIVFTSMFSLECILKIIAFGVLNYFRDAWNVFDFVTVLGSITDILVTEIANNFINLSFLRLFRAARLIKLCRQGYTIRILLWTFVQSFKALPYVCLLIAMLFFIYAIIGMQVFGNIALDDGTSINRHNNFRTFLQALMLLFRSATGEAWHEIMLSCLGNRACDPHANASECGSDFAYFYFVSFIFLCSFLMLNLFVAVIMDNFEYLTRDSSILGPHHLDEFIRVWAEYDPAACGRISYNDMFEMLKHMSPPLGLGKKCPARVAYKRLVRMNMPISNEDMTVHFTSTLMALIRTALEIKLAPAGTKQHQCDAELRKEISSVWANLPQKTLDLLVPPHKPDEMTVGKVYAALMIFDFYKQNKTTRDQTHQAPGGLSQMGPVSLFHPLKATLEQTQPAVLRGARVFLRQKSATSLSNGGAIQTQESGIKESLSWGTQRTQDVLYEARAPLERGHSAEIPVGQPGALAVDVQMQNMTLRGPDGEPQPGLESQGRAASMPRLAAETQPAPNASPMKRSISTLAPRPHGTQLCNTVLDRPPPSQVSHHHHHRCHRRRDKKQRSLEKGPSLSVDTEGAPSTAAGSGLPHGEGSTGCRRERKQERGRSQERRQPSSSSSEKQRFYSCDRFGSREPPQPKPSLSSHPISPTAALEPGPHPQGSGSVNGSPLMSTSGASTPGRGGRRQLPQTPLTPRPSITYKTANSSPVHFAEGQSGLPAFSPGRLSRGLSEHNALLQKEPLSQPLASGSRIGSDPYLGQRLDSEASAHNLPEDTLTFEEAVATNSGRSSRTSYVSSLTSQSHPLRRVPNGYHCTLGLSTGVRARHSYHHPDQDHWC

Some results are limits rather than exact numbers.

What all share (type): cell-based
For assay [1], the target named is T1, human α1G subunits (T-type channels) (Homo sapiens, UniProt O43497).
T1 construct: expressed in transfected cells
Description: Block of α1G T-type channels, patch clamp in HEK cell lines. How it is done:
Standard patch-clamp techniques were employed to identify blockers of T-type currents. Briefly, previously described HEK cell lines stably expressing human α1G subunits were used for all the recordings (passage #: 4-20, 37° C., 5% CO2). To obtain T-type currents, plastic dishes containing semi-confluent cells were positioned on the stage of a ZEISS AXIOVERT S100 microscope after replacing the culture medium with external solution (see below). Whole-cell patches were obtained using pipettes (borosilicate glass with filament, O.D.: 1.5 mm, I.D.: 0.86 mm, 10 cm length), fabricated on a SUTTER P-97 puller with resistance values of ˜5 MΩ (see below for internal medium).
Test compounds were dissolved in external solution, 0.1-0.01% DMSO. After ˜10 min rest, they were applied by gravity close to the cell using a WPI microfil tubing. The “non-inactivating” pre-pulse was used to examine the resting block of a compound. The “inactivating” protocol was employed to study voltage-dependent block. However, the initial data were obtained using the non-inactivating protocol.

In assay [2] the target is T2, P/Q-type channels (α1A+α2δ+β1b cDNA subunits) (Rattus norvegicus, UniProt P54282).
T2 construct: expressed in transfected cells
Description: Whole cell patch clamp, P/Q-type calcium channel block in HEK 293 cells. As to the method:
(§1) Antagonist activity was measured using whole cell patch recordings on human embryonic kidney cells either stably or transiently expressing rat N-type channels (α1B+[…]+β1b subunits) with 5 mM barium as a charge carrier. Alternatively, cells either stably or transiently expressing rat L-type channels (α1C+α2δ+β1b cDNA subunits) and P/Q-type channels (α1A+α2δ+β1b cDNA subunits)
(§2) After an incubation period of from 24 to 72 hrs the culture medium was removed and replaced with external recording solution (see below). Whole cell patch clamp experiments were performed using an Axopatch 200B amplifier (Axon Instruments, Burlingame, Calif.) linked to an IBM compatible personal computer equipped with pCLAMP software. […] Current data shown were elicited by a train of 100 ms test pulses at 0.066 Hz from −100 mV and/or −80 mV to various potentials (min. −20 mV, max. +30 mV). Drugs were perfused directly into the vicinity of the cells using a microperfusion system.
(§3) Normalized dose-response curves were fit (Sigmaplot 4.0, SPSS Inc., Chicago, Ill.) by the Hill equation to determine IC50 values. […]
(§4) Whole cell patch clamp experiments were performed using an Axopatch 200B amplifier (Axon Instruments, Burlingame, Calif.) linked to a personal computer equipped with pCLAMP software. […] Data were analyzed using Clampfit (Axon Instruments) and SigmaPlot 4.0 (Jandel Scientific).

For assay [3], the target named is T3, rat L-type channels (α1C+α2δ+β1b cDNA subunits) (Rattus norvegicus, UniProt P22002).
T3 construct: expressed in transfected cells
Description: Whole cell patch clamp, L-type calcium channel block in HEK 293 cells. As to the method:
as §1, §2, §3, §4
A general note: The patch-clamp technique gives a direct electrical read-out from membranes.

Assay [4] concerns the target T4, rat N-type channels (α1B+α2δ+β1b subunits) (Rattus norvegicus, UniProt Q02294).
T4 construct: expressed in transfected cells
In words: Whole cell patch clamp, N-type calcium channel block in HEK 293 cells. As to the method: as §1
HEK 293 cells were transfected by a standard calcium-phosphate-DNA coprecipitation method using the rat α1B+β1b+α2δ N-type calcium channel subunits in a vertebrate expression vector (for example, see Current Protocols in Molecular Biology).
as §2
Normalized dose-response curves were fit (Sigmaplot 4.0, SPSS Inc., Chicago, Ill.) by the Hill equation to determine IC50 values. Steady-state inactivation curves were plotted as the normalized test pulse amplitude following 5 s inactivating prepulses at +10 mV increments.
Alternatively, N-type calcium channels (α1B+α2δ+β1b cDNA subunits), L-type channels (α1C+α2δ+β1b cDNA subunits) and P/Q-type channels (α1A+α2δ+β1b cDNA subunits) were transiently expressed in HEK 293 cells. Briefly, cells were cultured in Dulbecco's modified eagle medium (DMEM) supplemented with 10% fetal bovine serum, 200 U/ml penicillin and 0.2 mg/ml streptomycin at 37° C. with 5% CO2. […] At 12 hours the medium was replaced and the cells transiently transfected using a standard calcium phosphate protocol and the appropriate calcium channel cDNAs. Fresh DMEM was supplied and the cells transferred to 28° C./5% CO2.
Whole cell patch clamp experiments were performed using an Axopatch 200B amplifier (Axon Instruments, Burlingame, Calif.) linked to a personal computer equipped with pCLAMP software. […] Currents were typically elicited from a holding potential of −80 mV to +10 mV using Clampex software (Axon Instruments). […] The compounds were then applied during the low frequency pulse trains for two to three minutes to assess tonic block, and subsequently the pulse frequency was increased to 0.2 Hz to assess frequency dependent block. Data were analyzed using Clampfit (Axon Instruments) and SigmaPlot 4.0 (Jandel Scientific).

One may read the IC50 as the concentration that inhibits the measured activity by half. As to `COc1c(C(C)(C)C)cc(C(=O)N2CCN(C(=O)CCCCC(c3ccc(F)cc3)c3ccc(F)cc3)CC2)cc1C(C)(C)C` [Compound P18, 1-[4-(3,5-di-tert-butyl-4-methoxy-benzoyl)-piperazi-1-yl]-6,6-bis-(4-fluoro-phenyl)-hexan-1-one], the IC50 is 22 nM in assay [1]; 2170 nM in assay [2]; above 100000 nM in assay [3]; 147 nM in assay [4] (IC50 for N-type Calcium Channel Block (0.067 Hz)); 89 nM in assay [4] (IC50 for N-type Calcium Channel Block (0.2 Hz)); 110 nM in assay [4] (N-type IC50). Further, the “specificity for N-type channels as compared to L and P/Q-type” value in assay [4] was “selectively block N-type channels”.
